Columns and labels:
Details in all cases: antagonist
[1] = molecular target: NK2 (Homo sapiens, UniProt P21452); experiment: Signal transduction (ST), intracellular Ca++ (FLIPR), NK2
Experimental: [The source words this procedure for another target and reports this target under the same test.] (§1) This test evaluates in vitro functional NK1 antagonistic activity. For the measurements of intracellular Ca^++ concentrations the cells were grown on 96-well (black wall/transparent bottom) plates from Costar for 2 days until they reached confluence. The cells were loaded with 2 μM Fluo3 in DMEM containing 0.1% BSA and 2.5 mM probenecid for 1 h at 37° C. They were washed 3× with a Krebs buffer (140 mM NaCl, 1 mM MgCl2×6H2O, 5 mM KCl, 10 mM glucose, 5 mM HEPES; 1.25 mM CaCl2; pH 7.4) containing 2.5 mM probenecid and 0.1% BSA (Ca^++-buffer). The cells were preincubated with a concentration range of antagonists for 20 min at RT and Ca^++-signals after addition of the agonists were measured in a Fluorescence Image Plate Reader (FLIPR from Molecular Devices, Crawley, England). The peak of the Ca^++-transient was considered as the relevant signal and the mean values of corresponding wells were analysed as described below.
(§2) The sigmoidal dose response curves were analysed by computerised curve-fitting, using the GraphPad Program. The EC50-value of a compound is the effective dose showing 50% of maximal effect. For mean curves the response to the agonist with the highest potency was normalised to 100%. For antagonist responses the IC50-value was calculated using non-linear regression.
(§3) The last columns indicate—without being limited thereto—for which action the compounds might be most suitable. Of course, since for some neurokinin receptors no data was determined, it is obvious that these compounds might be attributed to another suitable use.

By UniProt entry, the sequences of proteins in these tests, tags left out.
UniProt P21452, whole entry: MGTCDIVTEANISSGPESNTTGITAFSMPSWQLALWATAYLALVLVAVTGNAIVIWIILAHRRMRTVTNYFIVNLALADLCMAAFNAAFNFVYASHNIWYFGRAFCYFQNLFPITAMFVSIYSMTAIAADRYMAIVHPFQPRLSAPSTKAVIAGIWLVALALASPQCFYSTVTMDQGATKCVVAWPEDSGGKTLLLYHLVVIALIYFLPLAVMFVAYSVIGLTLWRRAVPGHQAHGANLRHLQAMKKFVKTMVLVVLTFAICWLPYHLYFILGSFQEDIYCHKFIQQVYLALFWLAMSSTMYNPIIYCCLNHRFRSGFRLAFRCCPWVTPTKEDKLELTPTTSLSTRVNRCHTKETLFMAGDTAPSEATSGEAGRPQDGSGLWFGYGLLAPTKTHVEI
UniProt P25103, whole entry: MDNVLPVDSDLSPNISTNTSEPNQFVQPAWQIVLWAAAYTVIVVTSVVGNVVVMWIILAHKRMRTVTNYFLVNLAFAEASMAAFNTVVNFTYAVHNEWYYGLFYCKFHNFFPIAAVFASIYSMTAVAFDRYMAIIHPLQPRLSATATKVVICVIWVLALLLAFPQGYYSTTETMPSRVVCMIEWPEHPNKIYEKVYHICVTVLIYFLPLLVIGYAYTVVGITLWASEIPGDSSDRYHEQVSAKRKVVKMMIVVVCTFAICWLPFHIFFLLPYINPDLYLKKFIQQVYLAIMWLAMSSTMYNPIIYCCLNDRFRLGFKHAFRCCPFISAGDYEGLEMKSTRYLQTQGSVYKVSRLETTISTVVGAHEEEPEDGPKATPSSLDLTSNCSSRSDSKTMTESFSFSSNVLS
UniProt P29371, whole entry: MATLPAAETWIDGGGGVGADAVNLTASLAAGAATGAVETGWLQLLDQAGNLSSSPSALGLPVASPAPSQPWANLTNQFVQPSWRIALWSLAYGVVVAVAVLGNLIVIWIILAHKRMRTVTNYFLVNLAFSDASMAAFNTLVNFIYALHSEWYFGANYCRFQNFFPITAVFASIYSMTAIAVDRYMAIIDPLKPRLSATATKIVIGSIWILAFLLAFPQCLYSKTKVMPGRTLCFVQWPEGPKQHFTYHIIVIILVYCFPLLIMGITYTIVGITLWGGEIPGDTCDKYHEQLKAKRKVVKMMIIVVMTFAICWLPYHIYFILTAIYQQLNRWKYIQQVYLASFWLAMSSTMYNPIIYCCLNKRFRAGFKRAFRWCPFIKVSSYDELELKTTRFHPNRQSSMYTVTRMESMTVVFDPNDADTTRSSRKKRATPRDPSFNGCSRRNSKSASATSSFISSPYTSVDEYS

[2] = molecular target: NK1 (Homo sapiens, UniProt P25103); experiment: Signal transduction (ST), intracellular Ca++ (FLIPR), functional NK1 antagonistic activity
Experimental: as §1, §2, §3

[3] = molecular target: NK3 (Homo sapiens, UniProt P29371); experiment: Signal transduction (ST), intracellular Ca++ (FLIPR), NK3
Experimental: [The source words this procedure for another target and reports this target under the same test.] as §1, §2, §3

## CCC=C(C)C(=O)N1CCC2(CC1)CCN(C1CCN(C(=O)c3cc(C(F)(F)F)cc(C(F)(F)F)c3)C(Cc3ccccc3)C1)CC2 (stereo not drawn)
[1]
  NK2 pIC50: <5
[2]
  NK1 pIC50: 6.97
[3]
  NK3 pIC50: <5

## O=C1CC2(CCN1CC1CC1)CCN([C@@H]1CCN(C(=O)c3cc(C(F)(F)F)cc(C(F)(F)F)c3)[C@H](Cc3ccccc3)C1)CC2
[1]
  NK2 pIC50: 5.19
[2]
  NK1 pIC50: 6.67
[3]
  NK3 pIC50: ~5.51

## O=C1CC[C@H](C(=O)N2CCC3(CC2)CCN([C@H]2CCN(C(=O)c4cc(C(F)(F)F)cc(C(F)(F)F)c4)[C@H](Cc4ccccc4)C2)CC3)N1
[1]
  NK2 pIC50: 5.75
[2]
  NK1 pIC50: 7.44
[3]
  NK3 pIC50: <5

## CC(=CC(=O)N1CCC2(CC1)CCN(C1CCN(C(=O)c3cc(C(F)(F)F)cc(C(F)(F)F)c3)C(Cc3ccccc3)C1)CC2)c1ccccc1 (stereo not drawn)
[1]
  NK2 pIC50: 5.22
[2]
  NK1 pIC50: 6.41
[3]
  NK3 pIC50: <5
